The results in this text go back to patent US12173004B2, “Pharmaceutical compositions comprising heterocycle fused gamma carboline prodrugs” (INTRA-CELLULAR THERAPIES, INC., priority 2017, dated 2024).

Like-named read-outs stand apart in the source and are kept apart here.

For series [1] the following is noted: mice.
A short description of a further series: in vivo. The following applies: mouse, plasma, po, 10 mg/kg.
[2] abbreviates: SC, 0.1 mg/kg (45% Trapposol veh).

What is called AUC(0-t) is exposure summed from dosing to a finite time, without extrapolation to infinity. Low readings indicate less exposure, high ones more exposure. One may read the Cmax as the maximum level reached in the sampled fluid or tissue. `O=C1CN2c3c(cccc3[C@@H]3CN(CCCOc4ccc(F)cc4)CC[C@@H]32)N1` [Example 2, (6bR,10aS)-8-(3-(4-fluorophenoxy)propyl)-6b,7,8,9,10,10a-hexahydro-1H-pyrido[3′,4′:4,5]pyrrolo[1,2,3-de]quinoxalin-2(3H)-one]: in series [1] (PO, 10 mg/kg (0.5% CMC veh)), the “Brain (ng/g), 0.5 hr” value is reported as 1180 ng/g; the “Brain (ng/g), 1 hr” value was determined as 989 ng/g; the “Brain (ng/g), 2 hr” value is recorded as 699 ng/g; the “Brain (ng/g), 4 hr” value came to 734 ng/g. Moreover, in series [1] (PO, 10 mg/kg (0.5% CMC veh)), the “Brain (ng/g), […]” value was 1288 ng/g; the “Plasma (ng/mL), 1 hr” value is 258 ng/mL; the “Plasma (ng/mL), 2 hr” value is listed as 153 ng/mL; the “Plasma (ng/mL), 4 hr” value is given as 199 ng/mL. Besides, in series [1] (PO, 10 mg/kg (0.5% CMC veh)), the “Plasma (ng/mL), […]” value worked out at 279 ng/mL. Moreover, in series [1] (setting [2]), the “Brain (ng/g), 0.5 hr” value is listed as 71.9 ng/g; the “Brain (ng/g), 1 hr” value came to 78.5 ng/g; the “Brain (ng/g), 2 hr” value was found to be 38.7 ng/g; the “Brain (ng/g), 4 hr” value is recorded as 32.6 ng/g. In series [1] (setting [2]), the “Brain (ng/g), […]” value came to 57.1 ng/g; the “Plasma (ng/mL), 0.5 hr” value came to 31.1 ng/mL; the “Plasma (ng/mL), 1 hr” value came to 29.2 ng/mL; the “Plasma (ng/mL), 2 hr” value is on record as 14.6 ng/mL. In addition, the “Plasma (ng/mL), […]” value in series [1] (setting [2]) was found to be 27.5 ng/mL. Besides, in “in vivo”, the AUC(0-t) turned out to be 759 ng·h/mL and the concentration peaked (Cmax) at 279 ng/mL.
